In PubChem BioAssay (NCI):
Some results for these compounds are left out of this collection, so the calls shown say nothing about other tests.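 1) Cells in 96-well plates. 2) Compound, 48 h, 5 concentrations. 3) Linear interpolation between surrounding doses. 4) Unreached endpoint = highest concentration. The concentration for 50% growth inhibition is given as GI50.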

How the values were obtained:
Assay in all cases: NCI anticancer screen, dose series, 48 h; in the data active means GI50 below about 0.43 µM; inactive means the rest
[1] = tested on: A498 renal
[2] = tested on: HL-60(TB) leukemia
[3] = tested on: U251 CNS
[4] = tested on: COLO 205 colon
[5] = tested on: CCRF-CEM leukemia
[6] = tested on: SK-MEL-5 melanoma
[7] = tested on: SR leukemia
[8] = tested on: LOX IMVI melanoma
[9] = tested on: SK-MEL-28 melanoma
[10] = tested on: NCI-H23 lung
[11] = tested on: NCI-H460 lung
[12] = tested on: SF-295 CNS
[13] = tested on: IGROV1 ovarian
[14] = tested on: BT-549 breast
[15] = tested on: SNB-75 CNS
[16] = tested on: MDA-MB-435
[17] = tested on: KM12 colon
[18] = tested on: PC-3 prostate
[19] = tested on: NCI-H226 lung
[20] = tested on: RXF 393 renal
[21] = tested on: SW-620 colon
[22] = tested on: HCT-15 colon
[23] = tested on: A549 NSCLC
[24] = tested on: M14 melanoma
[25] = tested on: SK-OV-3 ovarian
[26] = tested on: UACC-62 melanoma
[27] = tested on: OVCAR-5 ovarian
[28] = tested on: MDA-N
[29] = tested on: UO-31 renal
[30] = tested on: HOP-62 NSCLC
[31] = tested on: SF-268 CNS
[32] = tested on: K-562 leukemia
[33] = tested on: 786-0 renal
[34] = tested on: UACC-257 melanoma
[35] = tested on: RPMI-8226 leukemia
[36] = tested on: NCI/ADR-RES ovarian
[37] = tested on: NCI-H522 lung
[38] = tested on: SNB-19 CNS
[39] = tested on: OVCAR-8 ovarian
[40] = tested on: DU-145 prostate
[41] = tested on: NCI-H322M lung
[42] = tested on: TK-10 renal
[43] = tested on: OVCAR-3 ovarian
[44] = tested on: HCC-2998 colon
[45] = tested on: SN12C renal
[46] = tested on: MOLT-4 leukemia
[47] = tested on: HT29 colon
[48] = tested on: MCF7 breast
[49] = tested on: OVCAR-4 ovarian
[50] = tested on: MDA-MB-231 breast
[51] = tested on: T-47D breast
[52] = tested on: HCT-116 colon
[53] = tested on: HS 578T breast
[54] = tested on: ACHN renal
[55] = tested on: SK-MEL-2 melanoma
[56] = tested on: MALME-3M melanoma

Measured: GI50

O=C(OCCC1=C2CCN(CC2)C1)C(O)(c1ccccc1)C1CCCC1 (stereo unspecified)
inactive: [1] 32.7 µM | [2] 20 µM | [3] 41.6 µM | [4] 18.2 µM | [5] 3.43 µM | [6] 12.5 µM | [7] 27 µM | [8] 29.2 µM | [9] 23.4 µM | [10] 86 µM | [11] 38.2 µM | [12] 21 µM | [13] 79.2 µM | [14] 29.1 µM | [15] 27.7 µM | [16] 36 µM | [17] 30.8 µM | [18] 36.1 µM | [19] 31 µM | [20] 26.4 µM | [21] 20.1 µM | [22] 26.6 µM | [23] 24.4 µM | [24] 17 µM | [25] > 100 µM | [26] 18.1 µM | [27] 36.5 µM | [28] 34.5 µM | [29] 28.6 µM | [30] 21.5 µM | [31] 0.693 µM | [32] 2.6 µM | [33] 17.8 µM | [34] 21.5 µM | [35] 21.3 µM | [36] 46.2 µM | [37] 36 µM | [38] 58.7 µM | [39] > 100 µM | [40] > 100 µM | [41] 76.4 µM | [42] > 100 µM | [43] 94.4 µM | [44] 29.3 µM | [45] 62.3 µM | [46] 2.72 µM | [47] 28.3 µM | [48] 21.5 µM | [49] 50.5 µM | [50] 35.7 µM | [51] 24 µM | [52] 22.1 µM | [53] 31.6 µM | [54] 23.8 µM | [55] 24 µM | [56] 24.7 µM
